In one assay the test system is MMP-9. The note with it: read-out: target IC50; best known target MMP-9; no reference given; cited from earlier work.
For another assay, the target named is recombinant human IDE (Homo sapiens, UniProt P14735). Kind of assay: In vitro IDE enzymatic assay (hydrolysis of FRET1, SP1, FAβB, 125I-insulin or insulin by HTRF). As to conditions: read-out: IDE IC50; commercially available hydroxamic acids.

Amino acid sequences for entries named in this document (tags omitted).
UniProt P14735, whole entry: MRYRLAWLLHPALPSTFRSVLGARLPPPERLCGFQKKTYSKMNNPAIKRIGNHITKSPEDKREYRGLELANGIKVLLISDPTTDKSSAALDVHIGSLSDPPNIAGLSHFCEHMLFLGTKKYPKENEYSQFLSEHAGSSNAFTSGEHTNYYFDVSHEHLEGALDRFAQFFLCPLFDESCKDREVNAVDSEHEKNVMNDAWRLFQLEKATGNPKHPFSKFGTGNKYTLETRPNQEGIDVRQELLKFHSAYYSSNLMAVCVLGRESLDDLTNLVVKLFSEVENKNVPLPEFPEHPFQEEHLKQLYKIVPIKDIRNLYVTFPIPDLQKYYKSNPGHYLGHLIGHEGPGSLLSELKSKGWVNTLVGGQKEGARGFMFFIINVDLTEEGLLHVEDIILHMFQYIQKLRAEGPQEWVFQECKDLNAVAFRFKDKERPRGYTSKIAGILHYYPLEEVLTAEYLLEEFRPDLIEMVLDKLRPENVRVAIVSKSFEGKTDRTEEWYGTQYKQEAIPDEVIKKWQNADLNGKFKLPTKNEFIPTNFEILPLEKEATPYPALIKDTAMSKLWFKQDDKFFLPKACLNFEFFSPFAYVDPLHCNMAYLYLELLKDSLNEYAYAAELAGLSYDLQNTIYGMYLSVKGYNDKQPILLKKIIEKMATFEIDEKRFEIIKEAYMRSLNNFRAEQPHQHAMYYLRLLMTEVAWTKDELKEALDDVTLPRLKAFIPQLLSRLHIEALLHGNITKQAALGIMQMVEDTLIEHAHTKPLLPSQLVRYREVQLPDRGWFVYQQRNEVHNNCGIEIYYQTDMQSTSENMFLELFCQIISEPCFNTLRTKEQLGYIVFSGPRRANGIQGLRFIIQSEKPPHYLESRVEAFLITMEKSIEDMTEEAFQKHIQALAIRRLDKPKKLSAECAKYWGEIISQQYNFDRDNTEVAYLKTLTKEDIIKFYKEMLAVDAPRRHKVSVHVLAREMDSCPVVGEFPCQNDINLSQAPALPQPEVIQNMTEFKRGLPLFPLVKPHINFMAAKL

Data on two compounds can be found in paper PMC2866327, “Designed Inhibitors of Insulin-Degrading Enzyme Regulate the Catabolism and Activity of Insulin” (PLoS ONE, 2010).

In the case of `COc1ccc(S(=O)(=O)N2CC(C)(C)CN(S(=O)(=O)c3ccc(OC)cc3)C2C(=O)NO)cc1`, the values for the IC50 in the assay on MMP-9 and at recombinant human IDE were 0.0027 µM and above 100 µM, respectively.
As to `CCN(CC)Cc1cc(C)c(N(Cc2ccccc2)S(=O)(=O)c2ccc(OC)cc2)c(C(=O)NO)c1`, the IC50 on recombinant human IDE is above 100 µM.

By IC50 is commonly meant the concentration that inhibits the measured activity by half.
